Sequences of proteins named here, by UniProt entry; tags and fusion partners are left off. Residues count along the entry.
UniProt P55899, 24-297 limits assumed, chain 1 of 2: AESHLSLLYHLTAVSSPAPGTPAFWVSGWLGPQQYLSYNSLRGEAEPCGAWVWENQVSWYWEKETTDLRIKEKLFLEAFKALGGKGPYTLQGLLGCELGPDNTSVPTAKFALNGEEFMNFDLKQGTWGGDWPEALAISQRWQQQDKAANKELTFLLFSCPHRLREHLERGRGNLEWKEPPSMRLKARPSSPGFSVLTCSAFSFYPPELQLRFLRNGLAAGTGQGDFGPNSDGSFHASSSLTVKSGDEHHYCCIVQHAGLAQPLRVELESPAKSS

In patent US8906844B2 (SYNTONIX PHARMACEUTICALS, dated 2014):

Biological target: T1, soluble human FcRn (shFcRn) (human, UniProt P55899 24-297; P61769 21-119, biotinylated with Sulfo-NHS-LC-Biotin in the ELISA; amine-coupled to a CM5 chip in SPR)
T1 construct: also called biotinylated shFcRn
Assay: competition ELISA vs human IgG
Method: The wells were coated with 100 μl/well of 1 μg/ml biotinylated-shFcRn in Buffer A. The plate was sealed and incubated at 37° C. for 2 hours. Afterwards, the plate was washed with 200 μl/well of Buffer B (Buffer B: 100 mM MES pH 6, 150 mM NaCl, 0.5% BSA IgG-free (Jackson ImmunoResearch, West Grove, Pa.), 0.05% Tween-20). […] To allow for mixing, the plate was rocked for 2 minutes, sealed and incubated at 37° C. for 2 hours. […] The plate was covered, incubated for 30 minutes at room temperature and washed 4 times with 200 μl/well of ice-cold buffer B. SureBlue TMB substrate solution (100 μl/well, KPL, Gaithersburg, Md.) was added and the plate was allowed to incubate at room temperature until color developed, which took 5 to 10 minutes. Once color developed, 100 μl/well of TMB stop solution (KPL, Gaithersburg, Md.) was added and the absorbance was measured at 450 nm.

Which IC50 does the source give for QRFXTGHFXPLYPCNGP (Pen4; D-Phe9; disulfide; C-terminal amide) [Peptide No. 203] here?
Its IC50 is 22 µM.
